Patent publication US8481597B2, “Use of (-) (3-trihalomethylphenoxy) (4-halophenyl) acetic acid derivatives for treatment of insulin resistance, type 2 diabetes, hyperlipidemia and hyperuricemia” (Metabolex, Inc., priority 1999, dated 2013)

Chains of the proteins cited; added tags and fusions are not shown.
UniProt P05177, whole entry: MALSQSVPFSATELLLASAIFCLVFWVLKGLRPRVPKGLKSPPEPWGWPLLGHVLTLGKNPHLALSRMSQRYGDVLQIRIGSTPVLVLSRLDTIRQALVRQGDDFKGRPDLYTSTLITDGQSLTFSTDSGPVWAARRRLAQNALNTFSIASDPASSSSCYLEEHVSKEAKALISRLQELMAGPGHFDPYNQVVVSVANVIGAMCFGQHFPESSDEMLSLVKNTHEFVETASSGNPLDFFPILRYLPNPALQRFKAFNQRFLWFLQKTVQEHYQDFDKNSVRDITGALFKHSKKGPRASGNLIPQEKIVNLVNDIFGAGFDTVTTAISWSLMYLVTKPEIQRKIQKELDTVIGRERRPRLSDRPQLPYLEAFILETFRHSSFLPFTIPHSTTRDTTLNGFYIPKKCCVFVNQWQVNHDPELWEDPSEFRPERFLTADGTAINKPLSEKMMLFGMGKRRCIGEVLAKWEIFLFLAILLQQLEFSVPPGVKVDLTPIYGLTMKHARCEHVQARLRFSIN

Target: CYP1A2 (Homo sapiens, UniProt P05177)
Conditions: both, 30 min, 5 μM

SMILES: Cc1nc2c([nH]1)c(=O)n(C)c(=O)n2Cc1ccco1 [FUR, furafylline, reference compound]
- AC Production: 54.5 ± 1.3 pmol/mg protein/min
